Measured values reported in ChEMBL document CHEMBL4330119 (J Med Chem, 2019).

Legend:
[1] = species on record: Mus musculus; test: Selectivity ratio of Ki for mouse DOR expressed in CHO cell membranes to Ki for mouse MOR expressed in CHO cell membranes; type: cell-based
In short: (§1)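 Ratio of Ki values from competition binding: 30 μg CHO membranes in TME pH 7.4, filtration. IC50 converted to Ki by Cheng–Prusoff.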

[2] = species on record: Mus musculus; test: Selectivity ratio of Ki for mouse KOR expressed in CHO cell membranes to Ki for mouse MOR expressed in CHO cell membranes; type: cell-based; in short: as §1
[3] = system: Mus musculus; test: Antinociceptive activity in Swiss Webster mouse at 10 mg/kg, sc measured after 20 min post dose by tail immersion test; type: functional, organism-based
In short: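 Male Swiss Webster mice, 7–8 weeks, 5 per group. Compound given sc, tail immersed in 56 ± 0.1 °C water 20 min later. Only mice with baseline latency of 2–4 s were used. 10 s cutoff. %MPE = [(test – control)/(10 – control)] × 100.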

[4] = system: Mus musculus; test: In vivo antagonist activity at MOR in sc dosed Swiss Webster mouse assessed reduction in morphine-induced antinociceptive effect by measuring morphine MPE preincubated for 5 mins followed by morphine addition and measured after 20 min post morphine challenge by tail immersion test; type: functional
In short: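 Male Swiss Webster mice, 5 per group. […] Baseline latency 2–4 s, 10 s cutoff. %MPE calculated per mouse. AD50 by least-squares linear regression, 95% CI by Bliss method.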

O=C(N[C@@H]1CC[C@@]2(O)[C@H]3Cc4ccc(O)c5c4[C@@]2(CCN3CC2CC2)[C@H]1O5)c1ccncc1F
Ratio Ki [1]: 436 | Ratio Ki [2]: 13.3 | Activity [3]: inactive | inhibition [4]: Dose-dependent effect

Activity calls are given as the source filed them.
